Only a part is listed here, and it is no random draw. Measured potencies and affinities stand elsewhere. Calls of active or inactive are those of the source.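 Rule for the calls: active = fitted curve reaches 30% CPE protection at or below the top valid dose, with every test run called active; inconclusive = test runs disagree, some active and some not; inactive = every test run inactive, including effects in the wrong direction.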
Assay: Dengue virus 2 cytopathic effect protection, dose response, BHK-21 cells, ATP luminescence, cherry-pick (AID 687031);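 note: 0% = infected DMSO wells and 100% = uninfected cell wells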
Conditions: BHK-21 DENV2 CPE protection, 5 d; at 19.5 µM (top of the series)

Row | SMILES | CPE protection (higher = active)
1 | CCOC(=O)c1ccc(NP(C)(=O)Oc2ccc(Cl)cc2)cc1 (stereo unspecified) | inactive: 8.13%
